Experiments:
PKC delta = PKC delta (Homo sapiens, UniProt Q05655); assay: PKC kinase activity assay (Omnia Kinase Assay); type: biochemical; conditions: read-out: PKC delta inhibitory activity IC50; comparative analysis
Description: PKC Kinase Activity Assays: Assays were carried out using recombinant PKC alpha or PKC gamma, (Invitrogen) and the Omnia® Kinase Assays (Invitrogen) with a “PKC kinase-specific” peptide substrate. Incorporation of a chelation-enhanced fluorophore (CHEF) results in an increase in fluorescence ex360/em485) upon phosphorylation. The kit was used according to the manufacturer's instructions.

The chains behind the UniProt entries cited, without tags or fusion partners.
UniProt Q05655, whole entry: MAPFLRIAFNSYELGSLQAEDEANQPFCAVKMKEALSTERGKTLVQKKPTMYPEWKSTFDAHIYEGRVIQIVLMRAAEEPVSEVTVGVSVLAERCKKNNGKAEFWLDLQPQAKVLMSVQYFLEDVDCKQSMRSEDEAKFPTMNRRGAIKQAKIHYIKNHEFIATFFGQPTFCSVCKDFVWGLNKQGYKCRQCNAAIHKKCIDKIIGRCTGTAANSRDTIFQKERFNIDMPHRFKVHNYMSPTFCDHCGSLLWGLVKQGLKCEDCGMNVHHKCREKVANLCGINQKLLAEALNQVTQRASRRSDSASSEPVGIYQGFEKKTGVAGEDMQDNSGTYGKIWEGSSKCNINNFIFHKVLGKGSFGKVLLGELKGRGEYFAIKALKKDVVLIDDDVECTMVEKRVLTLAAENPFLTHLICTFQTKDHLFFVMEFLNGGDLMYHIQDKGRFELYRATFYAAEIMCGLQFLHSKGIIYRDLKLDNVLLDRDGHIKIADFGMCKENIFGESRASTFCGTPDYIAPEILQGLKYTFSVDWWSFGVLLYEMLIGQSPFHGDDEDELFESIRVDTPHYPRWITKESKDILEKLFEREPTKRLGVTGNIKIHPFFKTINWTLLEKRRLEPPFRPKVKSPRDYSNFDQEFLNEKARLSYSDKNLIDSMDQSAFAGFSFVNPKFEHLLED

BON1 cells = assay: Cell proliferation assay (MTT/MTS)
CNDT 2.5 cells = assay: Cell proliferation assay (MTT/MTS)
H727 cells [1] = assay: Cell proliferation assay (MTT/MTS)
H727 cells [2] = assay: Cytotoxicity assay (LDH release); conditions: H727, p<0.003

## CC1(C)C=Cc2cc(CCn3c4ccccc4c4ccccc43)cc(C(=O)/C=C/c3ccccc3)c2O1
PKC delta
  IC50: 900 nM
BON1 cells; BON1, by 72 hrs, highest concentrations tested
  reduction in cell numbers: 80%
BON1 cells; read-out: IC50, decrease in cell number, BON1, by 48 hrs
  IC50: 12 µM
CNDT 2.5 cells; CNDT 2.5, by 72 hrs, highest concentrations tested
  reduction in cell numbers: 80%
CNDT 2.5 cells; read-out: IC50, decrease in cell number, CNDT 2.5, by 48 hrs
  IC50: 12 µM
H727 cells [1]; H727, by 72 hrs, highest concentrations tested
  reduction in cell numbers: 80%
H727 cells [1]; read-out: IC50, decrease in cell number, H727, by 48 hrs
  IC50: 12 µM
H727 cells [2]
  LDH release versus vehicle control, significance: reached significance by 24 hr of exposure
